Source: PubChem (Broad Institute)
E-selectin induc: E-selectin induction on HUVECs; HUVEC E-selectin immunofluorescence imaging; normalized: neutral wells 0, TNF-alpha wells 100; activation, % at 7.58 µM; 0.37% of 260,000 active; AID 686992;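 active = mean E-selectin-positive cell signal at least 10% of the positive control, reached in at least 60% of replicates, without over 20% cell loss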
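Assay system: HUVEC primary endothelial cells. Input: 3,000 HUVEC seeded per well. Doses: one compound dose added by pin transfer. Read-out basis: % PE-positive cells. Benchmarks: TNF-alpha high, DMSO low. Detection: immunofluorescence imaging. Buffer or medium: EGM-2, gelatin.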
AF4-AF9 inh: MLL-AF4/AF9 protein interaction inhibition | AlphaScreen, biotin-AF4 peptide binding to FLAG-AF9 | inhibition, % at 10 µM | 0.47% of 350,000 active | AID 651704;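 active = every replicate reaching a set inhibition limit, whatever the replicate mean, cut at about 25% in these data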;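 also: 0% = plate neutral control median and 100% = total signal loss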
SIRT5 block: blocks human SIRT5 desuccinylation of peptide; Q9NXA8; 1.1% of 330,000 active; Purified SirT5, succinyl-peptide AMC, trypsin-coupled fluorescence; inhibition, % at 15 µM; AID 652115; in the data active = inhibition above about 15%
RAD52 inh: inhibitors of human RAD52 DNA annealing | P43351 | recombinant RAD52 DNA annealing, FRET fluorescence | inhibition, % at 18.7 µM | 0.46% of 360,000 active | AID 651710;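 active = every replicate showing at least 50% inhibition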
Yeast UUG start: alters start codon recognition fidelity in yeast | S. cerevisiae UUG-firefly luciferase reporter, luminescence/redox ratio | activity score, % at 18.7 µM | hit rate 0.13% among 350,000 | AID 602363;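 active means replicate mean at a twofold rise or more, about +100% in these data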;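 further: firefly luciferase made from a UUG start codon reports start codon fidelity; reporter light over untreated wells divided by growth signal over untreated wells; some hits fall short of that in this replicate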
RAD54 branch: blocks human RAD54 Holliday junction branch migration; Q92698; FAM/BHQ fluorescence; inhibition, % at 10.4 µM; 0.14% of 360,000 active; AID 602329;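 active = mean normalized replicate activity at least 40 and at least half of replicates scoring 40 or more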;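 also: 0% = median of neutral control wells and 100% = median of positive control wells; inhibitors cause a drop in the FAM fluorescence signal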
The depositor's hits bear a star; ! = not confirmed by another sample. Shown are actives, neighbours in structure and some others; about 1.8% of the full set was active somewhere.

How did CN(C)CC(=O)N1[C@H](CO)[C@@H](c2ccccc2)C12CN(C(=O)C1CCCC1)C2 do in these assays?
E-selectin induc: 0; AF4-AF9 inh: -2; SIRT5 block: 19*; RAD52 inh: -6

How did C/C=C/c1ccc([C@@H]2[C@H](CO)N(CC3CC3)C23CN(S(=O)(=O)CC)C3)cc1 do in these assays?
E-selectin induc: 0; AF4-AF9 inh: 2; SIRT5 block: 23*; RAD52 inh: -8

Results for C/C=C/c1ccc([C@@H]2[C@H](CO)N(CC3CC3)C23CN(S(C)(=O)=O)C3)cc1 ?
E-selectin induc: 0; AF4-AF9 inh: 2; SIRT5 block: -1; RAD52 inh: -25

Results for C[C@H](NC(=O)OCc1ccccc1)C(=O)NNC(=O)[C@H](C)NC(=O)OCc1ccccc1 ?
E-selectin induc: 0; AF4-AF9 inh: 1; SIRT5 block: 21*; RAD52 inh: -11; Yeast UUG start: -14; RAD54 branch: 3

How did C[C@@H]1CN([C@H](C)CO)C(=O)c2cccc(NC(=O)Nc3ccc4c(c3)OCO4)c2O[C@H]1CN(C)C(=O)Nc1ccc(C(F)(F)F)cc1 do in these assays?
E-selectin induc: 38*; AF4-AF9 inh: 9; SIRT5 block: 5; RAD52 inh: 8; Yeast UUG start: 12; RAD54 branch: 3

Results for C[C@H](CO)N1C[C@H](C)[C@H](CN(C)C(=O)Nc2ccc3c(c2)OCO3)Oc2c(NC(=O)Nc3ccc(C(F)(F)F)cc3)cccc2C1=O ?
E-selectin induc: 0; Yeast UUG start: 19; RAD54 branch: 3

How did C[C@@H]1CN([C@H](C)CO)C(=O)c2cccc(NC(=O)C3CCOCC3)c2O[C@H]1CN(C)C(=O)Nc1ccccc1 do in these assays?
E-selectin induc: 173*; AF4-AF9 inh: 0; SIRT5 block: -9; RAD52 inh: -5; Yeast UUG start: -2; RAD54 branch: 1

What do the screens show for `C[C@H](CO)N1C[C@H](C)[C@H](CN(C)C(=O)Nc2ccc3c(c2)OCO3)Oc2c(NC(=O)C3CCCCC3)cccc2C1=O`?
E-selectin induc: 0; AF4-AF9 inh: 6; SIRT5 block: 1; RAD52 inh: 15; Yeast UUG start: -4; RAD54 branch: -33

How did C[C@H](CO)N1C[C@H](C)[C@@H](CN(C)C(=O)Nc2ccc3c(c2)OCO3)Oc2c(NC(=O)C3CC3)cccc2C1=O do in these assays?
E-selectin induc: 0; AF4-AF9 inh: -11; SIRT5 block: 22*!; RAD52 inh: -8; Yeast UUG start: 15; RAD54 branch: 4

How did CO[C@H](CN(C)C(=O)Nc1ccc(C(F)(F)F)cc1)[C@@H](C)CN(Cc1ccccc1Cl)[C@H](C)CO do in these assays?
E-selectin induc: 0; AF4-AF9 inh: 1; SIRT5 block: 4; RAD52 inh: 4; RAD54 branch: -1

Results for C[C@@H]1CN([C@H](C)CO)C(=O)c2cc(NC(=O)Nc3ccc(F)cc3)ccc2O[C@@H]1CN(C)C(=O)Nc1ccc(F)cc1 ?
E-selectin induc: 1; AF4-AF9 inh: 2; SIRT5 block: -2; RAD52 inh: 13; Yeast UUG start: 9; RAD54 branch: 7

Results for O=C(C[C@H]1CC[C@H]2[C@@H](COC[C@H](O)CN2C(=O)Cc2ccccc2)O1)NC1Cc2ccccc2C1 ?
E-selectin induc: 0; RAD54 branch: 11

How did OCCCn1c(-c2ccccc2)csc1=Nc1ccccc1 do in these assays?
AF4-AF9 inh: 45*; SIRT5 block: -1; RAD52 inh: -3; Yeast UUG start: -11; RAD54 branch: 4

How did COc1ccc(CNC(=O)C[C@@H]2C[C@H]3c4cc(NC(=O)CN(C)C)ccc4O[C@H]3[C@H](CO)O2)cc1 do in these assays?
E-selectin induc: 1; AF4-AF9 inh: 2; SIRT5 block: 3; RAD52 inh: 9; Yeast UUG start: 10; RAD54 branch: 3

Results for COc1ccc(-n2ccc(=O)c(C(=O)O)n2)cc1 ?
AF4-AF9 inh: -3; SIRT5 block: -1; RAD52 inh: -8; Yeast UUG start: -23; RAD54 branch: -4

Results for COc1ccc(S(=O)(=O)NN(C)C(=O)c2nn(-c3ccccc3)ccc2=O)cc1 ?
E-selectin induc: 27*; AF4-AF9 inh: -3; SIRT5 block: 1; RAD52 inh: -8; Yeast UUG start: -12; RAD54 branch: -3

How did Cc1ccc(S(=O)(=O)N(C)C[C@H]2Oc3ccc(NC(=O)CCC(F)(F)F)cc3CC(=O)N([C@@H](C)CO)C[C@@H]2C)cc1 do in these assays?
E-selectin induc: 0; AF4-AF9 inh: 0; SIRT5 block: 3; RAD52 inh: 6; Yeast UUG start: 22; RAD54 branch: 11

What do the screens show for `NS(=O)(=O)c1cc(C(=O)NC2CCSc3ccccc32)ccc1Cl` (stereo not given)?
AF4-AF9 inh: 0; SIRT5 block: 43*; RAD52 inh: -14; Yeast UUG start: -27; RAD54 branch: -1

How did Cc1cccc(C(=O)OCC(=O)NC(=O)c2ccccc2)c1O do in these assays?
E-selectin induc: 1; AF4-AF9 inh: 2; SIRT5 block: 16*; RAD52 inh: 1

Results for Cc1cc(C)c(C(=O)OCC(=O)NC(=O)c2ccccc2)c(C)c1 ?
AF4-AF9 inh: -27; SIRT5 block: -3; RAD52 inh: -3; Yeast UUG start: 13; RAD54 branch: 5

The closing 3 records of the part before lead into the next:
What do the screens show for `NS(=O)(=O)c1cc(C(=O)NC2CCSc3ccccc32)ccc1Cl` (stereo not given)?
AF4-AF9 inh: 0; SIRT5 block: 43*; RAD52 inh: -14; Yeast UUG start: -27; RAD54 branch: -1

How did Cc1cccc(C(=O)OCC(=O)NC(=O)c2ccccc2)c1O do in these assays?
E-selectin induc: 1; AF4-AF9 inh: 2; SIRT5 block: 16*; RAD52 inh: 1

Results for Cc1cc(C)c(C(=O)OCC(=O)NC(=O)c2ccccc2)c(C)c1 ?
AF4-AF9 inh: -27; SIRT5 block: -3; RAD52 inh: -3; Yeast UUG start: 13; RAD54 branch: 5

What do the screens show for `CC(C)N1CCN(c2ccc(OC[C@H]3CO[C@](Cn4cncn4)(c4ccc(Cl)cc4Cl)O3)cc2)CC1`?
E-selectin induc: -2; AF4-AF9 inh: 36*; SIRT5 block: -7; RAD52 inh: 21; Yeast UUG start: -8; RAD54 branch: -2

How did C[C@H]1CCCCO[C@H](CN(C)Cc2ccc(C(=O)O)cc2)[C@@H](C)CN([C@@H](C)CO)C(=O)c2cc(NC(=O)Nc3ccccc3)ccc2O1 do in these assays?
E-selectin induc: 1; AF4-AF9 inh: -12; SIRT5 block: 0; RAD52 inh: 10; Yeast UUG start: 31; RAD54 branch: 5

How did CCN1/C(=N\N)c2cccc3cccc1c23 do in these assays?
E-selectin induc: 37*; AF4-AF9 inh: 8; SIRT5 block: 0; RAD52 inh: -36

What do the screens show for `Cc1noc(C)c1S(=O)(=O)N(C)C[C@H]1Oc2ccc(NC(=O)Nc3ccc4c(c3)OCO4)cc2CC(=O)N([C@H](C)CO)C[C@@H]1C`?
E-selectin induc: -14; AF4-AF9 inh: 9; SIRT5 block: -8; RAD52 inh: -6; Yeast UUG start: 5; RAD54 branch: 5

What do the screens show for `C[C@@H]1CN([C@H](C)CO)C(=O)c2cc(C#CC3CC3)cnc2O[C@@H]1CN(C)C(=O)CC1CC1`?
E-selectin induc: 0; AF4-AF9 inh: -4; SIRT5 block: -1; RAD52 inh: 5; Yeast UUG start: 11; RAD54 branch: 8

What do the screens show for `CN(C)Cc1ccccc1Sc1cccc2ccccc12`?
AF4-AF9 inh: -3; RAD52 inh: 5
